The text below walks through data of US12590088B2 (dated 2026).

The chains behind the UniProt entries cited, without tags or fusion partners. Where a name states a change or a piece, a line headed by the entry shows the natural chain unless it says otherwise.
UniProt O60674: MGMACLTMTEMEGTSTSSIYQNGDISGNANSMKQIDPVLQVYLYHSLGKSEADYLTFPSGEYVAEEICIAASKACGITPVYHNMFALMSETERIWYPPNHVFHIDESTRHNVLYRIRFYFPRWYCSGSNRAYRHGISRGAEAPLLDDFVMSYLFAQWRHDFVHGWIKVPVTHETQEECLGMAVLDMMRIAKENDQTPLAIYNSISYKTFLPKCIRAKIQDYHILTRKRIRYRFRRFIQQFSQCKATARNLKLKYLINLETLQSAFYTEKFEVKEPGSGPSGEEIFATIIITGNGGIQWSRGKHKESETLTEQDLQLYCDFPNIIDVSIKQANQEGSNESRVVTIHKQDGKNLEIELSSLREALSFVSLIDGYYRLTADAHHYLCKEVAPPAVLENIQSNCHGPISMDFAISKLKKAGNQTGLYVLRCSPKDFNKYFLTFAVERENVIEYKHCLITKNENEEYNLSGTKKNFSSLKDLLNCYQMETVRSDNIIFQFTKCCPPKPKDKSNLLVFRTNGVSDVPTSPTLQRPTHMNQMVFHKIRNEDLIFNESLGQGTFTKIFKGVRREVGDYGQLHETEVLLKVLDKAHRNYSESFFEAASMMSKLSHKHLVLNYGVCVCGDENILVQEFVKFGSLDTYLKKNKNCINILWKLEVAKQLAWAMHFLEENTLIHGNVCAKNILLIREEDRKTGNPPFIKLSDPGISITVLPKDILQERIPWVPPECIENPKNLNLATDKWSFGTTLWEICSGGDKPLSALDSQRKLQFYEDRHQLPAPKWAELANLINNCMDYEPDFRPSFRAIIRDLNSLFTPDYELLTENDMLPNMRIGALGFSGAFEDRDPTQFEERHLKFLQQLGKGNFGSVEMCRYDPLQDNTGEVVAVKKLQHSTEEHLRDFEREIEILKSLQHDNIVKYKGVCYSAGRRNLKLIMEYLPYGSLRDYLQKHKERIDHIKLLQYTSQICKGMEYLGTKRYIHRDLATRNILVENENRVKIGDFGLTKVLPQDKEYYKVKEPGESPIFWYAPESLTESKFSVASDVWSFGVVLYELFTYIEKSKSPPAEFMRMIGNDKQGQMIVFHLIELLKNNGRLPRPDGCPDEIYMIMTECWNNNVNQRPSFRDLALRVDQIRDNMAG
UniProt P29597: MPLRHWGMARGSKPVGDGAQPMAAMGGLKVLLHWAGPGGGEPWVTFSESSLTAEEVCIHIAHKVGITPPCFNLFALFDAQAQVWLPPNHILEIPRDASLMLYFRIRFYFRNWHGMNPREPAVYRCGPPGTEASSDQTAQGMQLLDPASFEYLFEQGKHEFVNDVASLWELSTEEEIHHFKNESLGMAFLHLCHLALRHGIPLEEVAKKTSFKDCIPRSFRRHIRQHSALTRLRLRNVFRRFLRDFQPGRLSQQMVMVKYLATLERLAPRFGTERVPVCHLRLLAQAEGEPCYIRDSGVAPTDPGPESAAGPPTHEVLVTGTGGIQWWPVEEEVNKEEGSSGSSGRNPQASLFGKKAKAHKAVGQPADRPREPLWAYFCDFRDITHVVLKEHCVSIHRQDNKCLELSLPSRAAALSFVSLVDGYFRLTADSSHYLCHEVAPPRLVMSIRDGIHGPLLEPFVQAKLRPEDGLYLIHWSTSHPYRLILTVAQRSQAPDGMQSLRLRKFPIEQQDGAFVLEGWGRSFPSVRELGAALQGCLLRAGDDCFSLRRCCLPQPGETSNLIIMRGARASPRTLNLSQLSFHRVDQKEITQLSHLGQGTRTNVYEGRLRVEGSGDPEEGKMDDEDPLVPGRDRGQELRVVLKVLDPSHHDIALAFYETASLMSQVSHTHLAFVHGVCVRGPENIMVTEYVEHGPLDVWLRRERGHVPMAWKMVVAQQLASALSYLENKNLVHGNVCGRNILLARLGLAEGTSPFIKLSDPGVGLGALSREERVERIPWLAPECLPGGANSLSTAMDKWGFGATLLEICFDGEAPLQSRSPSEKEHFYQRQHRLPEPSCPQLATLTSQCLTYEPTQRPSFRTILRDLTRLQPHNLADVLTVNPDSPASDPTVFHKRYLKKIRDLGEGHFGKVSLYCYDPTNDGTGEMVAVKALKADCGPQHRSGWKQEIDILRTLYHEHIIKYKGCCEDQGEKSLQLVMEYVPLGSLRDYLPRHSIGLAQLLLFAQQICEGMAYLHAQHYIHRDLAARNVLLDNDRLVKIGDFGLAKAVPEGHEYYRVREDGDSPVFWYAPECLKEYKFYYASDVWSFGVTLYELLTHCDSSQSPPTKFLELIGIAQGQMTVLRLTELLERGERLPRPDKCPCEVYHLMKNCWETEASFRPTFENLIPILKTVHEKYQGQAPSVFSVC
UniProt P23458: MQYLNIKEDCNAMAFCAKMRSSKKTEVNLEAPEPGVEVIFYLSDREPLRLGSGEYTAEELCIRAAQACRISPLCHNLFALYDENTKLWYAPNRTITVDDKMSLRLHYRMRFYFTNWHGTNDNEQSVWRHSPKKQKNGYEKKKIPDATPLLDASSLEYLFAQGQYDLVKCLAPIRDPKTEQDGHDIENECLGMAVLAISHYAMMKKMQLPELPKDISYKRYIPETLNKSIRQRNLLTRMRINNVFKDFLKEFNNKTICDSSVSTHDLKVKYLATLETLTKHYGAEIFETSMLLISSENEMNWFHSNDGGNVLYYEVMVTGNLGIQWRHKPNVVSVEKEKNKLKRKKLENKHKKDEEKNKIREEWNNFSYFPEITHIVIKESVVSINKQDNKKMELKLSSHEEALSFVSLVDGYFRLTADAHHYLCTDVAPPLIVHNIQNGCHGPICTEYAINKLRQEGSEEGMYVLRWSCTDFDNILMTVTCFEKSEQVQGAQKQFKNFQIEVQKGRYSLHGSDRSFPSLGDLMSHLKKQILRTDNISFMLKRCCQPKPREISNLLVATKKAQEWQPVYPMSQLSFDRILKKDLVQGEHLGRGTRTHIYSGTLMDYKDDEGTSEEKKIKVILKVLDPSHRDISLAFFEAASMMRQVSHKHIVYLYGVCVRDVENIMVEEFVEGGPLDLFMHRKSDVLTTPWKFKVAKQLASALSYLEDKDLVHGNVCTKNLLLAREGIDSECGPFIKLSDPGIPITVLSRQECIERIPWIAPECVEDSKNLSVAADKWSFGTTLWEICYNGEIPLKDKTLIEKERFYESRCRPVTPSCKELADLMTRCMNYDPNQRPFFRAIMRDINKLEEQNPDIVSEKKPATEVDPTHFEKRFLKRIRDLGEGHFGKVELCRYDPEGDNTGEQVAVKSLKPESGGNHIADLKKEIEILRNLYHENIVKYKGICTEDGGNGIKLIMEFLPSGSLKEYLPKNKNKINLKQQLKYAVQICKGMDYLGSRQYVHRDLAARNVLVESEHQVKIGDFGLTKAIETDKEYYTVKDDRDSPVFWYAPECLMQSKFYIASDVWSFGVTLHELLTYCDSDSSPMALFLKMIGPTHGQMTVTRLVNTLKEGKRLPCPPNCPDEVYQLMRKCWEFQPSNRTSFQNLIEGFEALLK

Like-named read-outs stand apart in the source and are kept apart here.

For experiment [1], the target named is JAK2 (Homo sapiens, UniProt O60674). Briefly: JAK2 IC50 measurement.
In experiment [2] the target is T1, TYK2 (Homo sapiens, UniProt P29597). Briefly: TYK2 IC50 measurement.
Experiment [3] addresses T2, JAK1 (Homo sapiens, UniProt P23458). The experiment is described as follows: JAK1 IC50 measurement.
Experiment [4] deals with T3, JAK3 (Homo sapiens, UniProt P52333).
T3 sequence (P52333 1-1124): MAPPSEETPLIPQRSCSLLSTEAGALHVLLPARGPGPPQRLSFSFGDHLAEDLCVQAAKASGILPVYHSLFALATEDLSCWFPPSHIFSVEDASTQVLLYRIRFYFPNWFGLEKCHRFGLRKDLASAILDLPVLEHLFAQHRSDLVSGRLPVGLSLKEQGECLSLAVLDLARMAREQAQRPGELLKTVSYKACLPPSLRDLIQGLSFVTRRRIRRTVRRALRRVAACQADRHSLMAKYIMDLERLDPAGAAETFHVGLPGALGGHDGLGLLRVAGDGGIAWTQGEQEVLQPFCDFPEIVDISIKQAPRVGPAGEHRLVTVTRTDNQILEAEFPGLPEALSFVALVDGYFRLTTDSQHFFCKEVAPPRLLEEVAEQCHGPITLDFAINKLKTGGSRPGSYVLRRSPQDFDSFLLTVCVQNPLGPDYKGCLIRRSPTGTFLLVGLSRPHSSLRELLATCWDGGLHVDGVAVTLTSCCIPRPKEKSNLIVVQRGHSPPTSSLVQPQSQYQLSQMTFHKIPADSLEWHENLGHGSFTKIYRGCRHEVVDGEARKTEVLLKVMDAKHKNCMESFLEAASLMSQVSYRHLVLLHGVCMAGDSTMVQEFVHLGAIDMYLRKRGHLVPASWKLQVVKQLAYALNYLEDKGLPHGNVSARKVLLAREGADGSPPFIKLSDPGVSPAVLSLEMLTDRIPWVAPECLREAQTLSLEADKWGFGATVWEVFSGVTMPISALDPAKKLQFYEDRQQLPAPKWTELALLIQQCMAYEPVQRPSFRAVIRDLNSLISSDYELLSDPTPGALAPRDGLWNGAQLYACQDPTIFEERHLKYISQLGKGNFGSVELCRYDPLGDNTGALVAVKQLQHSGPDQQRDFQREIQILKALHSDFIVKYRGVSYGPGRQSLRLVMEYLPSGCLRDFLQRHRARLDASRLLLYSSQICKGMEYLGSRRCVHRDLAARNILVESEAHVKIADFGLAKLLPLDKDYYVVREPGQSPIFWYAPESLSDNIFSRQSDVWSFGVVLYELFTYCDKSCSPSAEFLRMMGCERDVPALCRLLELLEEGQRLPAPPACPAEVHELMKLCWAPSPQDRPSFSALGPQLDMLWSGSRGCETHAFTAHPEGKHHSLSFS
The experiment is described as follows: JAK3 IC50 measurement.

Experiment [5] has as its target T2, JAK1. Briefly: Cell-based assay on Janus kinase inhibitors, JAK1 (GI50). Conditions: read-out: GI50(μM) JAK1.
For experiment [6], the target named is T1, TYK2. The experiment is described as follows: Cell-based assay on Janus kinase inhibitors, TYK2 (GI50). Conditions: read-out: GI50(μM) TYK2.

`CNC(=O)c1cnc2[nH]ccc2c1N[C@H]1CCN(Cc2ccc(OC)cc2)[C@@H](C)C1` (relative stereo) [Compound 20i, 4-((cis-1-(4-Methoxybenzyl)-2-methylpiperidin-4-yl)amino)-N-methyl-1H-pyrrolo[2,3-b]pyridine-5-carboxamide]: in experiment [1], the IC50 turned out to be 63.2 nM.
On to `CNC(=O)c1cnc2[nH]ccc2c1NC1CC2CCC(C1)N2Cc1cccc(C#N)c1` (stereo not shown) [Compound 17f, 4-((8-(3-Cyanobenzyl)-8-azabicyclo[3.2.1]octan-3-yl)amino)-N-methyl-1H-pyrrolo[2,3-b]pyridine-5-carboxamide], for which the “Selectivity for JAK1 TYK2/JAK1” value in experiment [2] (ratio of IC50 values) was found to be 12.0. The molecule further displayed a half-inhibitory concentration (IC50) in experiment [3] of 0.00767 µM. The “Selectivity for JAK1 JAK3/JAK1” value in experiment [4] was 5.83. Also, the “Selectivity for JAK1 JAK2/JAK1” value in experiment [1] is given as 7.66.
In experiment [1], `CNC(=O)c1cnc2[nH]ccc2c1N[C@H]1CCN(Cc2cccc(OC)c2)[C@@H](C)C1` (relative stereo) [Compound 20h, 4-((cis-1-(3-Methoxybenzyl)-2-methylpiperidin-4-yl)amino)-N-methyl-1H-pyrrolo[2,3-b]pyridine-5-carboxamide] showed an IC50 of 28.4 nM.
On the same count and under the same terms, next, `CNC(=O)c1cnc2[nH]ccc2c1N[C@@H]1CCN(Cc2ccccc2)[C@@H](C)C1` (relative stereo) [Compound 20a, 4-((trans-1-Benzyl-2-methylpiperidin-4-yl)amino)-N-methyl-1H-pyrrolo[2,3-b]pyridine-5-carboxamide]: 179 nM.
Take `CNC(=O)c1cnc2[nH]ccc2c1NC1CCCN(Cc2cccc(Cl)c2)CC1` (stereo not shown) [Compound 19b, 4-((1-(3-Chlorobenzyl)azepan-4-yl)amino)-N-methyl-1H-pyrrolo[2,3-b]pyridine-5-carboxamide]: the concentration for 50% growth inhibition (GI50) in experiment [5] worked out at 0.472 µM. In experiment [3] (read-out: IC50(μM) JAK1), the half-inhibitory concentration (IC50) is 0.00943 µM.
As for `CNC(=O)c1cnc2[nH]ccc2c1NC1CC2CCC(C1)N2Cc1ccc(Cl)cc1` (stereo not shown) [Compound 17c, 4-((8-(4-Chlorobenzyl)-8-azabicyclo[3.2.1]octan-3-yl)amino)-N-methyl-1H-pyrrolo[2,3-b]pyridine-5-carboxamide], the GI50 in experiment [5] worked out at 1.17 µM. The IC50 in experiment [3] (read-out: IC50(μM) JAK1) was determined as 0.0174 µM.
`CNC(=O)c1cnc2[nH]ccc2c1N[C@@H]1CCN(Cc2ccc(OC)cc2)[C@@H](C)C1` (relative stereo) [Compound 20e, 4-((trans-1-(4-Methoxybenzyl)-2-methylpiperidin-4-yl)amino)-N-methyl-1H-pyrrolo[2,3-b]pyridine-5-carboxamide] yielded an IC50 in experiment [1] of 817 nM.
As to `CNC(=O)c1cnc2[nH]ccc2c1N[C@@H]1CCN(Cc2cccc(OC)c2)C[C@@H]1F` (relative stereo) [Compound 21b, 4-((cis-3-Fluoro-1-(3-methoxybenzyl)piperidin-4-yl)amino)-N-methyl-11H-pyrrolo[2,3-b]pyridine-5-carboxamide], the 50% growth inhibitory concentration (GI50) in experiment [5] came out at 0.178 µM; in experiment [6] it was 8.24 µM. Also, the IC50 was 116 nM in experiment [2] and 0.00077 µM in experiment [3].
On to `CNC(=O)c1cnc2[nH]ccc2c1N[C@@H]1CCN(Cc2cccc(Cl)c2)C[C@H]1F` (relative stereo) [Compound 21a, 4-((trans-1-(3-Chlorobenzyl)-3-fluoropiperidin-4-yl)amino)-N-methyl-1H-pyrrolo[2,3-b]pyridine-5-carboxamide], for which the IC50 was found to be 308 nM in experiment [2], 0.017 µM in experiment [3] and 28 nM in experiment [1].

The IC50 is the point on the concentration scale where inhibition reaches its midpoint. The GI50 is the concentration at which growth is held to half of that of the control.
